Laboratory results reported in patent US20260384421A1, “NOVEL COMPOUNDS THAT CAN BE USED AS THERAPEUTIC AGENTS” (published 2026).

How the values were obtained:
A-549 cells = experiment: alamarBlue proliferation assay with A-549 cells; details: read-out: Activity on A-549: IC50, DMEM medium, 10% FBS
SW-948 cells = experiment: alamarBlue proliferation assay with SW-948 cells (glucose-free L-15 medium); details: read-out: Activity on SW-948: IC50, Leibovitz's L-15 medium, 10% FBS, 0% CO2
Text: (§1) These hyperproliferative processes can be benign or malignant and include hyperplasia, neoplasia, cancer and pre-cancerous lesions, and metastases. The antiproliferative activities of compounds falling under general formula (I) were investigated on human primary epidermal keratinocytes (HPEK) and human, murine and canine cell lines derived from hyperproliferative tissue or different cancer types, including MDA-MB-231, ZR-75-30, HCC-1395, HCC-1937, and T-47D all originating from cancer of the breast, JURKAT, RPMI-8402, LOUCY, TANQUE, REC-1, HL-60, NB-4 all originating from different types of blood cancer including lymphoma and leukemia of T-cells, B-cells and myeloid cells, TT originating from cancer of the neuroendocrine system, HeLa originating from cancer of the cervix, 23132/87, SW-948, and HCT-116 all originating from cancer of the gastrointestinal tract including stomach and colon, BHY originating from cancer of the mucosal epithelium, A-431 originating from cancer of the skin, HEP-G2 originating from cancer of the liver, NCI-H460 and A-549 both originating from cancer of the lung, PANC-1 originating from cancer of the pancreas, U-87 MG originating from cancer of the brain, A-375 and RVH-421 both originating from cancer of melanocytes, SW-1353 originating from cancer of bone-derived chondrocytes, C2C12 a mouse cell line originating from hyperproliferative muscle progenitor cells, LL/2 a mouse cell line originating from cancer of the lung, CF21.T a dog cell line originating from cancer of the connective tissue. To this end, according cells were seeded into 96-well plates (CORNING #3598) suitable for fluorescence assays at following initial cell numbers: 1000 cells per well for HPEK; 3000 cells per well for MDA-MB-231, 8000 cells per well for ZR-75-30, 1500 cells per well for HCC-1395, 1500 cells per well for HCC-1937, 3000 cells per well for T-47D, 1500 cells per well for JURKAT, 5000 cells per well for RPMI-8402, 9000 cells per well for LOUCY, 1500 cells per well for TANQUE, 9000 cells per well for REC-1, 1000 cells per well for HL-60, 1000 cells per well for NB-4, 9000 cells per well for TT, 2000 cells per well for HeLa, 2000 cells per well for 23132/87, 9000 cells per well for SW-948, 700 cells per well for HCT-116, 1500 cells per well for BHY, 700 cells per well for A-431, 1500 cells per well for HEP-G2, 500 cells per well for NCI-H460, 1000 cells per well for A-549, 1500 cells per well for PANC-1, 2500 cells per well for U-87 MG, 700 cells per well for A-375, 1500 cells per well for RVH-421, 2000 cells per well for SW-1353, 500 cells per well for C2C12, 500 cells per well for LL/2, and 3000 cells per well for CF21.T. In a volume of 90 μL per well of culture medium the cells were treated with compounds at indicated final concentrations by adding 10 μL per well of 10× compound working solutions from 1:100 pre-diluted 1000× compound DMSO stock-solutions in H2O (Water For Injection, WFI, Fisher Scientific, Gibco™ #A12873) or with the empty carrier DMSO (AppliChem, #A3672) at 0.1% v/v as control yielding a final volume of 100 μL per well. At day 5 after starting the treatments the cells were subjected to the alamarBlue® Proliferation Assay (Bio-Rad Serotec GmbH, BUF012B) according to the protocol of the manufacturer. The readout was taken with a multi-well plate-reader (Tecan Spark®) in the fluorescence mode with applying a filter for excitation at 560 nm (band width 10 nm) and for emission at 590 nm (band width 10 nm). Treatment for maximum proliferation inhibition with the commercial cytotoxic compound (S)-(+)-camptothecin (Fluorochem #M01564) at a concentration of 10 μM was included on each plate for assay quality control. Some of the test compounds of the present invention may have been obtained and applied as their salt forms.
(§2) The assays were performed in duplicate or more replicates of independent single experiments each containing a three- to six-fold replicate for every condition. […]

SW-1353 cells = experiment: alamarBlue proliferation assay with SW-1353 cells (glucose-free L-15 medium); details: read-out: Activity on SW-1353: IC50, Leibovitz's L-15 medium, 10% FBS, 0% CO2
Text: as §1, §2

RVH-421 cells = experiment: alamarBlue proliferation assay with RVH-421 cells (glucose-free L-15 medium); details: read-out: Activity on RVH-421: IC50, Leibovitz's L-15 medium, 10% FBS, 0% CO2
HL-60 cells = experiment: alamarBlue proliferation assay with HL-60 cells; details: read-out: Activity on HL-60: IC50, RPMI 1640 medium, 10% FBS
Text: as §1, §2

NCI-H460 cells = experiment: alamarBlue proliferation assay with NCI-H460 cells; details: read-out: Activity on NCI-H460: IC50, RPMI 1640 medium, 10% FBS
MDA-MB-231 cells = experiment: alamarBlue proliferation assay with MDA-MB-231 cells (glucose-free Leibovitz's L-15 medium)
JURKAT cells = experiment: alamarBlue proliferation assay with JURKAT cells; details: read-out: Activity on JURKAT (IC50), day 5
Text: as §1, §2

C2C12 cells = experiment: alamarBlue proliferation assay with C2C12 cells; details: read-out: Activity on C2C12: IC50; C2C12 murine myoblast cells, RPMI 1640 medium, 10% FBS
Text: as §1, §2

HPEKp cells = experiment: proliferation assay with human epidermal keratinocyte progenitors (HPEKp), selectivity versus MDA-MB-231; details: read-out: Activity (HPEK): antiproliferative activity on HPEK cells, IC50 category; HPEK cells cultivated in CnT-Prime medium
[1] = read-out: Activity on MDA-MB-231 (IC50), glucose-free Leibovitz's L-15, 10% FBS, day 5, alamarBlue
[2] = read-out: Activity (MDA): antiproliferative activity on MDA-MB-231 cells, IC50 category, MDA-MB-231 cells cultivated in glucose-free Leibovitz's L-15 medium

Row | IC50 (A-549 cells) [nM] | IC50 (SW-948 cells) [nM] | IC50 (SW-1353 cells) [nM] | IC50 (HL-60 cells) [nM] | IC50 (NCI-H460 cells) [nM] | IC50 (MDA-MB-231 cells; [1]) [nM] | IC50 (JURKAT cells) [nM] | IC50 (HPEKp cells) [nM] | IC50 (MDA-MB-231 cells; [2]) [nM] | Compound | IC50 (RVH-421 cells) [nM] | IC50 (C2C12 cells) [nM]
1 | ≤ 200 | ≤ 1000 | ≤ 200 | ≤ 5000 | ≤ 200 | ≤ 200 | ≤ 20000 | – | – | O=C(c1ccc(Oc2ccc(C3CCC4(CC3)OCCO4)cc2CO)cc1)N1CCN(Cc2ccc3ccccc3n2)CC1 | ≤ 200 | –
2 | – | – | – | – | – | ≤ 200 | – | – | – | COc1ccc(CN2CCN(C(=O)c3ccc(Oc4ccc(C5CCC6(CC5)OCCO6)cc4C=O)cc3)CC2)cn1 | – | ≤ 5000
3 | – | – | – | – | – | ≤ 200 | – | – | – | CS(=O)(=O)c1ccc(CN2CCN(C(=O)c3ccc(Oc4ccc(C5CCC6(CC5)OCCO6)cc4C=O)cc3)CC2)cc1 | – | ≤ 200
4 | ≤ 5000 | ≤ 5000 | ≤ 1000 | ≤ 5000 | ≤ 5000 | ≤ 1000 | ≤ 20000 | < 5000 | < 1000 | COc1cc(CN2CCN(C(=O)c3ccc(Oc4ccc(C5CCC6(CC5)OCCO6)cc4CO)cc3)CC2)cc(OC)c1 | ≤ 1000 | –
5 | – | – | – | – | – | ≤ 200 | – | – | – | O=Cc1cc(C2CCC3(CC2)OCCO3)ccc1Oc1ccc(C(=O)N2CCN(Cc3ccc(OC(F)(F)F)cc3)CC2)cc1 | – | ≤ 1000
6 | – | – | – | – | – | ≤ 1000 | – | – | – | COc1cccc(CN2CCN(C(=O)c3ccc(Oc4ccc(C5CCC6(CC5)OCCO6)cc4C=O)cc3)CC2)c1 | – | ≤ 5000
7 | – | – | – | – | – | ≤ 1000 | – | – | – | O=Cc1cc(C2CCC3(CC2)OCCO3)ccc1Oc1ccc(C(=O)N2CCCN(Cc3ccccc3)CC2)cc1 | – | ≤ 5000
8 | – | – | – | – | – | ≤ 200 | – | – | – | Cn1c(CN2CCN(C(=O)c3ccc(Oc4ccc(C5CCC6(CC5)OCCO6)cc4C=O)cc3)CC2)cc2ccccc21 | – | ≤ 1000
9 | – | – | – | – | – | ≤ 200 | – | – | – | O=Cc1cc(C2CCC3(CC2)OCCO3)ccc1Oc1ccc(C(=O)N2CCCN(Cc3ccc(C(F)(F)F)cc3)CC2)cc1 | – | ≤ 1000
10 | – | ≤ 5000 | – | ≤ 20000 | ≤ 5000 | ≤ 5000 | ≤ 20000 | – | – | Cc1cc(C(=O)N2CCN(Cc3ccccc3)CC2)ccc1Oc1ccc(C2CCC3(CC2)OCCO3)cc1C=O | ≤ 5000 | –
11 | ≤ 200 | ≤ 1000 | ≤ 200 | ≤ 5000 | ≤ 200 | ≤ 200 | ≤ 20000 | < 10000 | < 1000 | O=C(c1ccc(Oc2ccc(C3CCC4(CC3)OCCO4)cc2CO)cc1)N1CCN(Cc2cnc3ccccc3c2)CC1 | ≤ 200 | –

Where two headings read alike, the source gives them in different places.
